{"sequences": {"note": "Chains of the proteins cited; added tags and fusions are not shown. Residues count along the entry.", "UniProt P43220, 24-463": "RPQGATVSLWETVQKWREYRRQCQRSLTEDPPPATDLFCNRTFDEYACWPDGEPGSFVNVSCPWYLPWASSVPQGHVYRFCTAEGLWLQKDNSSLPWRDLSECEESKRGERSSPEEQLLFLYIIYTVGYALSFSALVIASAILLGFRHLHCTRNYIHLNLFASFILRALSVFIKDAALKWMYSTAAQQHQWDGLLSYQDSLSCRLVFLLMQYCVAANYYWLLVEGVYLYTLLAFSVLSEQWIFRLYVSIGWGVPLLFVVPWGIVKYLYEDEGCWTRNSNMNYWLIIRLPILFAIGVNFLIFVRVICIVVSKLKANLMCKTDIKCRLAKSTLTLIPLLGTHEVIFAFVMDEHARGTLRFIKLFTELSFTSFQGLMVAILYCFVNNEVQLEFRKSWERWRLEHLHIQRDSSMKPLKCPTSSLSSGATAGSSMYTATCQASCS"}, "source": "patent US7847063B2", "about": "(Sanwa Kagaku Kenkyusho Co., Ltd., priority 2003, dated 2010)", "biological_target": "T1, human GLP-1 receptor (Homo sapiens, UniProt P43220)", "T1 construct": "expressed in transfected cells; host or cells: Chinese hamster ovary CHO-K1 cells", "experiment": "Cyclic AMP production activity in CHO-K1 cells expressing human GLP-1 receptors", "assay_type": "cell-based", "details": "compared with native GLP-1; 37° C. 30 min; FIG. 7", "method": "10 μl of 5N hydrochloric acid was added to the buffer to stop the incubation."}
{"substance": "[Ser^8]-GLP-1 (7-36 amide) [[Ser^8]-GLP-1 (7-36amide), reference compound]", "values": [{"measurement": "cyclic AMP production activity", "value": "same level of cyclic AMP production activity as native GLP-1"}]}
